These are literature values, as cited in patent US20220218838A1, “ADC FOR A TREATMENT CONCOMITANT WITH OR SUBSEQUENT TO DOCETAXEL” (PIERRE FABRE MEDICAMENT, priority 2019, published 2022).

By UniProt entry, the sequences of proteins in these tests, tags left out. Residues count along the entry.
UniProt P08069, 741-1367 partner limits assumed: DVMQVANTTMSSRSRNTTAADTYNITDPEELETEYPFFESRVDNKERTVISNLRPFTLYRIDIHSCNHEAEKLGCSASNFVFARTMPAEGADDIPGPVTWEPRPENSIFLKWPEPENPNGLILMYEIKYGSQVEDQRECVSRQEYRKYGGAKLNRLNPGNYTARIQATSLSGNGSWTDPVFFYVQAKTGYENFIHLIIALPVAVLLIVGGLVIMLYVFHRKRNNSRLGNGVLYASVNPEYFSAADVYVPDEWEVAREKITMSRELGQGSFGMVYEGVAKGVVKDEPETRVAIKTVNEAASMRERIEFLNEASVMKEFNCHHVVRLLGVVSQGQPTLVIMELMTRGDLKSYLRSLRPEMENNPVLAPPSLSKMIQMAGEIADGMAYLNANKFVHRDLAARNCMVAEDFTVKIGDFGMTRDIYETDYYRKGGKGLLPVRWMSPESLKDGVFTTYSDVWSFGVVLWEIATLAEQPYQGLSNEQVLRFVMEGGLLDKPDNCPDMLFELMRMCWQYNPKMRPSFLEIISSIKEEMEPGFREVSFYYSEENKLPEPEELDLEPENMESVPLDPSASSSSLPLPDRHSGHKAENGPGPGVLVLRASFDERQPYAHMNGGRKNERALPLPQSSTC
UniProt P08069, 31-736 limits assumed: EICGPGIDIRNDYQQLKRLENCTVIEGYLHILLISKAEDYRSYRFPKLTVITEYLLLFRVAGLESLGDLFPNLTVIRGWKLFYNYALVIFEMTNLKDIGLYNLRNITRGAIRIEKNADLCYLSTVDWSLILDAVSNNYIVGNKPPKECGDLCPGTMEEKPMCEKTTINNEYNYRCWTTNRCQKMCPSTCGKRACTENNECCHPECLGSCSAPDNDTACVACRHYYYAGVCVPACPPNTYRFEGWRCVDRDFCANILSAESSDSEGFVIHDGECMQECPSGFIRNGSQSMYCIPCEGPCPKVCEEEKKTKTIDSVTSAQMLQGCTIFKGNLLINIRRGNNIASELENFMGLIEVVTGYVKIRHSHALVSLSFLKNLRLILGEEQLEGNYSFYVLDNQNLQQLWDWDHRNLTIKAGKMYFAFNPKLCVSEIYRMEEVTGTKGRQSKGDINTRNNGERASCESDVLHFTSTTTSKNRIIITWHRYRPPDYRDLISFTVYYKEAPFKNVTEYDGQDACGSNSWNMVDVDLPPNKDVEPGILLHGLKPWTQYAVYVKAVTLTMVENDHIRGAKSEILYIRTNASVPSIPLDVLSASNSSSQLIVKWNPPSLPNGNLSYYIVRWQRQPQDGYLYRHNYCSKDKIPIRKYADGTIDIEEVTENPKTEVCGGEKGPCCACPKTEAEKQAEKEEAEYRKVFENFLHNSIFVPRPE

The data set deals with IGF-IR (Homo sapiens, UniProt P08069). To be noted: read-out: Kd of binding to IGF-IR; cited from earlier work.

For orientation: Kd means the free concentration of one partner at which half of the binding sites on the other are occupied at equilibrium, for simple one-to-one binding. On to IGF1: natural ligand bound by IGF-IR, for which the Kd was roughly 1 nM.
